Measurements: patent US9272035B2, “Methods and compositions using PDE4 inhibitors for the treatment and management of autoimmune and inflammatory diseases” (Celgene Corporation, priority 2011, dated 2016)

Columns and labels:
[1] = test system: mAB/LPS-induced experimental arthritis; test: Antibody-induced arthritis in mice (mAb/LPS model, 11 treatment days); details: for hind paw thickness: study days 5, 7, 9, 11 and 14
[2] = test system: collagen antibody-induced arthritis; test: Mouse model of collagen antibody-induced arthritis (CAIA); type: in vivo, Male BALB/c mice; details: both doses tested (5 or 6.25 mg/kg IP) once daily on days 3-13
Description: Cytokine and chemokine protein levels were analyzed by cytometric bead array on a Luminex 100. CAIA model: […] Compound A and ETN were administered once daily on days 3-13. […] Both hind paws (left and right) of each animal were examined for signs of arthritogenic responses in blinded fashion. Arthritic reactions were scored and recorded according to a 0-4 scale in ascending order of severity. Hind paw thickness was measured in mm using a Mitutoyo Electronic Digital Caliper.

| Compound | hind paw thickness ([1]; 5 or 25 mg/kg PO once daily, 11 days, vs. Vehicle Control) | hind paw thickness ([1]; 5 or 6.25 mg/kg, Positive Control, listed as Enbrel) | mean group percentage change in hind paw thickness vs. arthritis induction initiation (Day 0) ([1]; 5 or 6.25 mg/kg, vs. Vehicle Control, Days 7, 9, 11 & 14) | hind-paw arthritic reaction scores and thickness [2] |
| --- | --- | --- | --- | --- |
| CCOc1cc([C@@H](CS(C)(=O)=O)N2C(=O)c3cccc(NC(C)=O)c3C2=O)ccc1OC [Compound A, (S)-N-(2-(1-(3-ethoxy-4-methoxyphenyl)-2-(methylsulfonyl)ethyl)-1,3-dioxoisoindolin-4-yl)acetamide] | statistically significant reduction in paw swelling | – | – | – |
| etanercept [reference compound] | – | statistically significant reduction in paw swelling | highly significantly lower (P<0.01) | significantly reduced (p<0.01) |
